{"sequences": {"note": "Protein sequences, listed by entry. Tags and fused reporters are not part of them. Lines headed by an entry give the natural chain unless they say otherwise; changes in a name come on top.", "UniProt Q61143": "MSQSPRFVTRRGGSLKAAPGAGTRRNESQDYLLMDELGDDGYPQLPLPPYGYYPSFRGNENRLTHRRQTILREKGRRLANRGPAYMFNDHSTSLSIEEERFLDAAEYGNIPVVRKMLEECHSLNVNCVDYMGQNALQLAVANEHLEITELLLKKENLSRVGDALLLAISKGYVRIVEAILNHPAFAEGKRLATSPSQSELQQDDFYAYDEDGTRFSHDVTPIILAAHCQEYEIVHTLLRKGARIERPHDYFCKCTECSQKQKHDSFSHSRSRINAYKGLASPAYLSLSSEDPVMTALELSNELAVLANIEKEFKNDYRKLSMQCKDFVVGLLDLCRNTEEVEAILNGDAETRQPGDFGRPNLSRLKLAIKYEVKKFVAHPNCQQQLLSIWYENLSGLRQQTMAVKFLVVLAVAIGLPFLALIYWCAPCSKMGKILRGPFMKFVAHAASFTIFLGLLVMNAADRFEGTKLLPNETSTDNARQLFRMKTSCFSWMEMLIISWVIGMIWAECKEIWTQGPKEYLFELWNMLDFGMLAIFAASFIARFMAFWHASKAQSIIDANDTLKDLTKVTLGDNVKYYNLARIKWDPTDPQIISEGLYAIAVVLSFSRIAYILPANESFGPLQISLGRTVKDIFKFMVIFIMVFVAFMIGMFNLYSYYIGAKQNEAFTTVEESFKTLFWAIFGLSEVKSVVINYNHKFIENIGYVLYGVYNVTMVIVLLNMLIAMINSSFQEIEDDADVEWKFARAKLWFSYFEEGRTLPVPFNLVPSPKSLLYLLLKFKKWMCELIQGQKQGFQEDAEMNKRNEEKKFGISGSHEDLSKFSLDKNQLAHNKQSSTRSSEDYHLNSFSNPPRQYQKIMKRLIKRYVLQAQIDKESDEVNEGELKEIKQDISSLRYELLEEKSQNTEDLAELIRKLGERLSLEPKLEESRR"}, "source": "PubChem BioAssay AID2553", "about": "(Johns Hopkins Ion Channel Center, 2010)", "note": "This is a selection; strong and weak results do not stand in their true shares. Calls of active or inactive are those of the source.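 Rule for the calls: active = B-score under library mean minus 3 SD, initial fluorescence not abnormally high, positive integrated signal ratio; inactive = the rest.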", "data": [{"biological_target": "Short transient receptor potential channel 6 (Mus musculus) (UniProt Q61143)", "assay": "mouse TRPC6 channel inhibitors, primary screen, cell-based, HEK293, membrane potential dye (AID 2553);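 note: B-score derived from integrated fluorescence ratio over the kinetic read; more negative B-score means stronger inhibition of depolarization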", "settings": "ACh-evoked depolarization, at 10 µM, hits give low values", "values": [{"smiles": "CN1CCCC(OC(=O)C(c2ccccc2)c2ccccc2)C1", "note": "(centres undefined)", "B-score": "active: -7.8"}, {"smiles": "O=[N+]([O-])c1ccc(O)c(/C=N/Nc2ccc([N+](=O)[O-])cc2[N+](=O)[O-])c1", "B-score": "active: -7.02"}, {"smiles": "CCC1=CC2Cc3nc4ccc(Cl)cc4c(N)c3C(C1)C2", "note": "(centres undefined)", "B-score": "active: -9.34"}, {"smiles": "O=C(OC1CN2CCC1CC2)C12CC3CC(CC(C3)C1)C2", "note": "(centres undefined)", "B-score": "active: -6.46"}]}]}
